The target in experiment [1] is T1, OGFr (Homo sapiens, UniProt Q9NZT2).
T1 construct: Tumor tissues from some mice in each treatment group were removed at the time of death; from tissue; host or cells: SCC-1 squamous cell carcinoma xenograft tumors grown subcutaneously in nude mice
T1 sequence (Q9NZT2 1-677): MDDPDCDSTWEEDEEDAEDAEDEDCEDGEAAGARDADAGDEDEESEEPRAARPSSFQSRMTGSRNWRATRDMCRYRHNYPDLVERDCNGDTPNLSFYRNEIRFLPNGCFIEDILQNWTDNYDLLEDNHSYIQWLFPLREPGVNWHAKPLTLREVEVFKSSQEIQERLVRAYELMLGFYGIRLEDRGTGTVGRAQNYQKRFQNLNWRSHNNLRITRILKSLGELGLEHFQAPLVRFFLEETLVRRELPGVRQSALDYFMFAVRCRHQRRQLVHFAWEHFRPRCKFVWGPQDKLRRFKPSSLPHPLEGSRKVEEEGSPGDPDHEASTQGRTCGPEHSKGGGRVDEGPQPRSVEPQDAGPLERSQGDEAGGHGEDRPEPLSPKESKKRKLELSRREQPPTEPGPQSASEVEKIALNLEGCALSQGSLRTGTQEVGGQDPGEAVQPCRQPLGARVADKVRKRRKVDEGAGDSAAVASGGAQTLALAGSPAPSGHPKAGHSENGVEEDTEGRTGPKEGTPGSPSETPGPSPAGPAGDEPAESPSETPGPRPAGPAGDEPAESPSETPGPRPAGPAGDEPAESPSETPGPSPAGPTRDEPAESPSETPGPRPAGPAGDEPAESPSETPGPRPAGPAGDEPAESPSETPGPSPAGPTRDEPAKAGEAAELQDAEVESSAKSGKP
In words: Receptor binding analysis of OGFr in SCC-1 tumors from treated mice. The protocol: Tumor tissues from some mice in each treatment group were removed at the time of death, washed free of blood and connective tissue, and immediately frozen in liquid nitrogen. Tissues were assayed following the procedures published previously [ 16]. Saturation binding isotherms were generated using GraphPad Prism software; binding affinity (Kd) and capacity (Bmax) values were provided by the computer software.

For experiment [2], the system named is MIA PaCa-2 cells. In words: Growth assays of MIA PaCa-2 cells (MTS assay or cell counting), Example 7. Conditions: for decrease in cell number relative to controls: OGF 10^−6 M and/or gemcitabine 10^−8 M. The experiment is classed as cell-based, human. As for the experimental part:
MIA PaCa-2 and PANC-1 human pancreatic adenocarcinoma cell lines were purchased from the American Type Culture Collection (Manasass, Va.). MIA PaCa-2 cells were derived from an undifferentiated epithelial carcinoma occurring in the body and tail of the pancreas in a person. The PANC-1 cells were derived from an undifferentiated carcinoma from the head of the pancreas in a person. MIA PaCa-2 and PANC-1 cells were grown in Dulbecco's MEM (modified) media; media was supplemented with 10% fetal calf serum, 1.2% sodium bicarbonate, and antibiotics (5,000 Units/ml penicillin, 5 mg/ml streptomycin, 10 mg/ml neomycin), and the cells were maintained in a humidified atmosphere of 7% CO2/93% air at 37° C.
MIA PaCa-2 cells were seeded at equivalent amounts into either 75 cm^2 flasks, 6-well plates, or 96-well plates (Falcon) and counted 24 hr later to determine plating efficiency. Growth assays for PANC-1 cells were conducted in 6-well plates (Falcon). Compounds or sterile water were added beginning 24 hr after seeding (=0 hr), and both media and compounds were replaced daily. All drugs were prepared in sterile water and dilutions represent final concentrations of the compounds.
Cell viability was determined by trypan blue staining. At least two aliquots per flask or 4-10 wells/treatment were counted at each time.

In experiment [3] the test system is SCC-1 cells. In words: DNA synthesis, BrdU incorporation into SCC-1 cells. Format: cell-based, human. As to conditions: treatment for 24 hours.
The test system of experiment [4] is MiaPaCa-2 cells. In words: Gemcitabine growth curve, actual cell counts. The experiment is classed as cell-based, human. Conditions: MiaPaCa-2 cell counts, gemcitabine 10^−7 M or OGF 10^−6 M alone.
The subject of experiment [5] is SCC-1 cells. In words: Growth curves of SCC-1 cells, cell proliferation (MTT) assay, absorbency. Conditions: carboplatin 10^−6 M and/or OGF 10^−6 M.
Experiment [6] concerns SCC-1 cells. In words: Apoptosis, caspase-3 activity by flow cytometry in SCC-1 cells. The experiment is classed as cell-based, human. As for the experimental part: Caspase-3-FITC positive staining was used to characterize early stages of apoptosis (29). SCC-1 cells were seeded into 6-well plates and treated with drugs beginning 24 hr later; drugs and media were replaced daily. Cells were harvested after 1, 3 and 6 days of drug treatment, and prepared according to manufacturer's recommendations for FACS analysis (FACS cell sorter with a 15 mW argon ion laser at 488 nm; Becton, Dickinson and Company, Franklin Lakes, N.J.). For caspase-3 identification, the APO-ACTIVE 3 antibody detection kit (Cell Technology, Mountain View, Calif.) was used. Three samples from each treatment were analyzed at each time point. The percent gated cells recorded by flow cytometry was considered caspase positive.

For the substance [Met^5]-enkephalin [OGF], the “binding capacity (Bmax) relative to control subjects” value in experiment [1] is recorded as about 2 fold. The “decrease in cell number relative to controls” value in experiment [2] (48 hr) is on record as 16%; in experiment [2] (72 hr), 18%; in experiment [2] (96 hr) it was 17%; in experiment [4] (48 h), 15.5%; in experiment [4] (72 h) it was 17.6%; in experiment [4] (96 h), 16.7%. Also, the figures for the “decrease in cell number relative to controls” value in experiment [5] (48 h), in experiment [5] (72 h) and in experiment [5] (96 h) were 8.2%, 8.4% and 9.7%, respectively. The “inhibition of cell number relative to controls” value in experiment [2] (opioids 10^−6 M daily, 96 hr) was 16%. Also, the “decrease in the number of BrdU positive cells relative to controls” value in experiment [3] was found to be 31%. Moreover, in experiment [6] (3 days), the “caspase positive cells, fold more than in control cultures” value is “No change from control levels”. The “caspase reactive cells, fold more than in control cultures” value in experiment [6] (6 days) is listed as “No change from control levels”.

The record behind these values is patent publication US8003630B2, “Combinatorial therapies for the treatment of neoplasias using the opioid growth factor receptor” (The Penn State Research Foundation, priority 2004, dated 2011).
